From ChEMBL document CHEMBL2417369, “Synthesis and evaluation of heteroaryl substituted diazaspirocycles as scaffolds to probe the ATP-binding site of protein kinases” (Bioorg Med Chem, 2013)

Sequences of proteins named here, by UniProt entry; tags and fusion partners are left off.
UniProt Q15418, whole entry: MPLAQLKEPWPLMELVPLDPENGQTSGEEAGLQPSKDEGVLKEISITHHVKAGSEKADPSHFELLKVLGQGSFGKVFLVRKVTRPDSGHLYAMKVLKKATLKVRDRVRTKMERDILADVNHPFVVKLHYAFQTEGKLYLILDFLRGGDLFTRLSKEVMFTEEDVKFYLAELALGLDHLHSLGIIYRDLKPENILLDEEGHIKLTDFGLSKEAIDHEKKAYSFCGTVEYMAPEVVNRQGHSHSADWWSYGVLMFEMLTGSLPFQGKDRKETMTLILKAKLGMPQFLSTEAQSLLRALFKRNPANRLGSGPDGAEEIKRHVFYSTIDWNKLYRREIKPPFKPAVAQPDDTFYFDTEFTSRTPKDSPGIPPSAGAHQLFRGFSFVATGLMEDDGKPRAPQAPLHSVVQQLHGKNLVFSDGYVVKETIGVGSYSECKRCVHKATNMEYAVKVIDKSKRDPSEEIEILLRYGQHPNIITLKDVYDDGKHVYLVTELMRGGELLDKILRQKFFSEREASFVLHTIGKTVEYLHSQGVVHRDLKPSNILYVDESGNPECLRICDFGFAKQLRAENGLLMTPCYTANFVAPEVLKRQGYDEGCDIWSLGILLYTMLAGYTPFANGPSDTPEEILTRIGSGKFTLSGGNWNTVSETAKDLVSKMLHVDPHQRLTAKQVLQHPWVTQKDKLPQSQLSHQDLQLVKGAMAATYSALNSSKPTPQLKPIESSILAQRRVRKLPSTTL

Target: Ribosomal protein S6 kinase alpha-1 (Homo sapiens, UniProt Q15418)
Assay: Inhibition of RSK1 (unknown origin) by microfluidic mobility shift assay

## c1nc(N2CCC3(CCCNC3)CC2)c2nc[nH]c2n1
  IC50: 13 µM
